Results published in patent US20240108738A1, “BICYCLIC PEPTIDE LIGANDS SPECIFIC FOR NK CELLS” (Bicycle Tx Limited, priority 2021, published 2024).

The chains behind the UniProt entries cited, without tags or fusion partners. A line that says so, or that is headed by a name, gives the form on record, which may keep a tag or linker. Residues count along the entry.
Human NKp46 Fc tag (Acro Biosystems, NC1-H5257) (human), O76036, UniProt O76036, 22-255 limits assumed: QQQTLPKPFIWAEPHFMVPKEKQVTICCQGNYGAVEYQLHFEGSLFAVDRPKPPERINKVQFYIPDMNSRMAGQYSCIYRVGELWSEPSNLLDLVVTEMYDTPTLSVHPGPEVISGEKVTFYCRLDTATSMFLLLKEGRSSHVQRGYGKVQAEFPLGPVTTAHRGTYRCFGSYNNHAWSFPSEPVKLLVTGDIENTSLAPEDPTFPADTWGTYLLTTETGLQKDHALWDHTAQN

Molecular target: Human NKp46 Fc tag (Acro Biosystems, NC1-H5257) (human), O76036
Assay: SPR Method 1 and/or 2

Binder	Kd
CDLTTHNCQWGIC (modifications not checked) [BCY18262]	3180 nM
ACALTTHNCQWGICA (modifications not checked) [BCY18263]	1740 nM
ACNLQQPCMLTGKVCA (modifications not checked) [BCY19708]	1740 nM
ACNLQAPCMQTGKVCA (modifications not checked) [BCY15098]	1070 nM
